Laboratory results reported in article PMC3094488 (European journal of pharmacology, 2011).

Sequences of proteins named here, by UniProt entry; tags and fusion partners are left off.
UniProt P47746, whole entry: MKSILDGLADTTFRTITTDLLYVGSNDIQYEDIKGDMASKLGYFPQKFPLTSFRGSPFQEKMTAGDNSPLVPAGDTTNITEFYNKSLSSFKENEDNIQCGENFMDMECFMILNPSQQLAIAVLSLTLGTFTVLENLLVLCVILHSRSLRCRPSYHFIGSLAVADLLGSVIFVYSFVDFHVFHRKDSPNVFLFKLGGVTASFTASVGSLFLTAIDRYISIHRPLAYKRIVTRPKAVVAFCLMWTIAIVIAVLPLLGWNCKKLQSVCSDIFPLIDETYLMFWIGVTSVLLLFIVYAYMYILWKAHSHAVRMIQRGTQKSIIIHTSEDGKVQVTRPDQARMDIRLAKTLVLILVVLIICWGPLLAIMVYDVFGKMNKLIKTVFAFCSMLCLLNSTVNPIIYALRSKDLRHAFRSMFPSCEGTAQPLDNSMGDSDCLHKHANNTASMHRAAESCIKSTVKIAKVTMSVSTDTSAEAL
UniProt P20272, whole entry: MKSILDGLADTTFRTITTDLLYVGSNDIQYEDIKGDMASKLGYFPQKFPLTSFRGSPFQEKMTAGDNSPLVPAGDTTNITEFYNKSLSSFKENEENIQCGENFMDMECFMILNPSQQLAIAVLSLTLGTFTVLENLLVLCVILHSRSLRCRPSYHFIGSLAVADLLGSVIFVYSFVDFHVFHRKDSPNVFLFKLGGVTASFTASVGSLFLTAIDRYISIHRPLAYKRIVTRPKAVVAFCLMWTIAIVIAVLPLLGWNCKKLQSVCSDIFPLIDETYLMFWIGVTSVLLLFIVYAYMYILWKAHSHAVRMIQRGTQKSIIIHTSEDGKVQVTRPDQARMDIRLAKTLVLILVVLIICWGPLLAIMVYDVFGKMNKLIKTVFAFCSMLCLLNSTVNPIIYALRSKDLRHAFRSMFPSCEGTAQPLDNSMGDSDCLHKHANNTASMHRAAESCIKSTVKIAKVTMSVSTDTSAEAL

Experiments:
CB1 receptors [1] = target: T1, CB1 receptors (Mus musculus, UniProt P47746); assay: Inhibition of EPSCs; type: cell-based; conditions: 1 μM rimonabant against 1 μM CP47,497-C8 or JWH073
CB1 receptors [2] = target: CB1 receptors (Rattus norvegicus, UniProt P20272); assay: CB1 receptor internalization in HEK293 cells stably expressing CB1; type: cell-based
CB1 receptors [3] = target: T1, CB1 receptors; conditions: 100 nM treatment; ref Straiker and Mackie, 2005; cited from earlier work

For `Cc1c(C(=O)NN2CCCCC2)nn(-c2ccc(Cl)cc2Cl)c1-c1ccc(Cl)cc1` [rimonabant, Rimonabant], which “effect of rimonabant on agonist-induced EPSC inhibition” value (CB1 receptors [1]) is on record?
The value was “reversed”.

And the “CB1 surface levels with rimonabant alone” value (CB1 receptors [2]; 1 μM rimonabant alone, data not shown)?
Its value is 99.4 ± 2.7 % of basal surface levels.

And the “effect of rimonabant on agonist-induced CB1 internalization” value (CB1 receptors [2]; 1 μM rimonabant with 1 μM of each drug)?
Its value is “prevented internalization”.

And the “EPSC size with rimonabant on its own” value (CB1 receptors [3])?
The value was 96 ± 4.0 % of baseline.
